# Test results reported in patent publication US10662140B2, “Method for skin-whitening using composition containing resveratryl triglycolate” (KYUNGPOOK NATIONAL UNIVERSITY INDUSTRY-ACADEMIC COOPERATION …, priority 2016, dated 2020).
# System: Human epidermal melanocytes (HEM)
smiles,measurement,value
"O=C(O)CO [GA, glycolic acid]",cytotoxicity,no cytotoxicity
